# Experimental data as given in PubChem BioAssay AID686940 (The Scripps Research Institute Molecular Screening Center, 2013).
# Chains of the proteins cited; added tags and fusions are not shown.
# UniProt P24468, whole entry: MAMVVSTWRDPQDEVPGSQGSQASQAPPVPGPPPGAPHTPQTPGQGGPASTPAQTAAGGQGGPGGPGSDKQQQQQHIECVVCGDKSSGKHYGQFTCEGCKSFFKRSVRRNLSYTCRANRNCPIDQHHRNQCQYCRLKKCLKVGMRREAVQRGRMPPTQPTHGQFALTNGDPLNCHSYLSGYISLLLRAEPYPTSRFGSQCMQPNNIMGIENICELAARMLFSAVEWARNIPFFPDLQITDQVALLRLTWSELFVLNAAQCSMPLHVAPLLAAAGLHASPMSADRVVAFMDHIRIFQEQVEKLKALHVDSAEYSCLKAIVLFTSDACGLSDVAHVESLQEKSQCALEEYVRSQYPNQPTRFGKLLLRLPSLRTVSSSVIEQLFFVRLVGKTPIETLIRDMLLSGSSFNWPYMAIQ
# Only a part is listed here, and it is no random draw. Some structures show a salt or complex split into parts, the way the source records it. The source made the active and inactive calls.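 Rule for the calls: active = inhibition above a per-plate cutoff, mean inhibition of test wells between control levels plus 3 SD (cut at about 38% in these data); inactive = the rest.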
# Target: COUP transcription factor 2 (Homo sapiens) (UniProt P24468)
# Test: NR2F2 transcriptional activity inhibitors, primary screen, cell-based, luciferase reporter, HEK293T, luminescence (AID 686940);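 note: cells cotransfected with COUP-TFII expression vector driving the NGFI-A reporter; 0% = median of COUP-TF2 test wells and 100% = reporter-only cells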
# Conditions: HEK293T NGFI-A luciferase reporter, at 8.6 µM, hits give high values
row,SMILES,inhibition
1,Cc1c(C(c2ccc3c(c2)OCO3)c2c(C)n(C)n(-c3ccccc3)c2=O)c(=O)n(-c2ccccc2)n1C.O=[N+]([O-])c1cc([N+](=O)[O-])c(O)c([N+](=O)[O-])c1,inactive: 12.1%
2,Cc1cc(-c2cccc3ccccc23)c(C)cn1.O=[N+]([O-])c1cc([N+](=O)[O-])c(O)c([N+](=O)[O-])c1,inactive: -7.27%
3,O=[N+]([O-])c1cc([N+](=O)[O-])c(NCC2CCS(=O)(=O)C2)c([N+](=O)[O-])c1 (centres undefined),inactive: 8.48%
4,O=[N+]([O-])c1ccc(OP2(=O)COCCO2)cc1 (centres undefined),inactive: 7.19%
5,COc1ccc(NP(C)(=O)Oc2ccccc2OC)cc1 (centres undefined),inactive: -18.7%
6,CN(C)CCOC(=O)C(O)(c1ccccc1)C1CCCCC1 (centres undefined),inactive: -10.7%
7,COc1ccc(OP(C)(=O)Nc2cccc(Br)c2)cc1 (centres undefined),inactive: 0.05%
8,O=[N+]([O-])c1cc([N+](=O)[O-])c(C(F)(F)F)c([N+](=O)[O-])c1O,inactive: -18.4%
9,Cc1ccccc1NP(C)(=O)Nc1ccccc1C,inactive: 16.8%
10,CP(=O)(Nc1ccc2c(c1)OCCO2)Oc1ccccc1 (centres undefined),inactive: 4.79%
11,CCOP(=O)(CC)OCC,inactive: -23.1%
12,CCOP(C)(=S)SCC(=O)NC(C)(CC)C(=O)O (centres undefined),inactive: 4.94%
13,CP(=O)(Nc1ccc(SC(F)(F)F)cc1)Oc1ccc(F)cc1 (centres undefined),inactive: 9.02%
14,COc1ccc2c(c1O)-c1c(O)c(OC)cc3c1[C@H](C2)[N+](C)(C)CC3.O=[N+]([O-])c1cc([N+](=O)[O-])c([O-])c([N+](=O)[O-])c1[O-],inactive: -2.66%
15,O=C(OCCN1CCN(CCOCc2ccccc2)CC1)C(O)(c1ccccc1)c1ccccc1,inactive: -5.37%
16,O=C(OC1CN2CCC1CC2)c1ccc([N+](=O)[O-])cc1 (centres undefined),inactive: -4.54%
17,CC(C)c1ccc(OP(C)(=O)Nc2ccc(SC(F)(F)F)cc2)cc1 (centres undefined),inactive: 7.73%
18,CP(=O)(Nc1ccccc1F)Oc1ccccc1 (centres undefined),inactive: 37.3%
19,O=[N+]([O-])c1cc([N+](=O)[O-])c(Nc2ccc(Cl)cc2)c([N+](=O)[O-])c1,active: 57.3%
20,CCCCCOc1ccc(NP(C)(=O)Oc2ccc(Cl)cc2Cl)cc1 (centres undefined),inactive: -10.1%
21,O=[N+]([O-])c1cc([N+](=O)[O-])c(OC2CCCCC2O)c([N+](=O)[O-])c1 (centres undefined),inactive: -5.55%
22,CP(=O)(Nc1ccccc1)Oc1ccc(F)cc1 (centres undefined),inactive: 4.72%
23,CCN(CC)CCCOC(=O)C(O)(c1ccccc1)C1CCCCC1 (centres undefined),inactive: 9.75%
24,Cc1c([N+](=O)[O-])cc([N+](=O)[O-])c(Br)c1[N+](=O)[O-],inactive: 15.7%
25,COc1ccc(OP(C)(=O)Nc2ccc(SC(F)(F)F)cc2)cc1 (centres undefined),inactive: 10.2%

row,SMILES,inhibition
1,CCOC(=O)c1ccc(NP(C)(=O)Oc2ccc(F)cc2)cc1 (centres undefined),inactive: -11.4%
2,CCN(CC)CCCNc1ccccc1[N+](=O)[O-].O=[N+]([O-])c1cc([N+](=O)[O-])c(O)c([N+](=O)[O-])c1,inactive: 7.49%
3,CCCCCCCCCCCCCCCC1C[N+](C)(C)CCOP(C)(=O)O1 (centres undefined),inactive: -10%
4,CP(=O)(Nc1ccc(Cl)cc1Cl)Oc1ccccc1 (centres undefined),inactive: 1.28%
5,CP(=O)(OCCOc1ccccc1)OCCOc1ccccc1,inactive: 10.1%
6,COc1ccc(OP(C)(=O)Nc2ccccc2Br)cc1 (centres undefined),inactive: 1.44%
7,COc1ccccc1OP(C)(=O)Nc1ccc(C)c(C)c1 (centres undefined),inactive: 10.6%
8,Cc1cc(C)cc(OP(C)(=O)Nc2cccc(C(F)(F)F)c2)c1 (centres undefined),inactive: 4.93%
9,O=C1C(O)=C([N+](=O)[O-])C(=O)C(O)=C1[N+](=O)[O-],inactive: -7.92%
10,CCc1ccc(OP(C)(=O)O)cc1,inactive: -2.9%
11,COc1ccccc1OP(C)(=O)Nc1ccc(C)cc1C (centres undefined),inactive: 1.4%
12,CP(=O)(Nc1ccccn1)Oc1ccccc1 (centres undefined),inactive: -0.42%
13,Cc1c(NP(C)(=O)Oc2ccc(C(C)C)cc2)c(=O)n(-c2ccccc2)n1C (centres undefined),inactive: -3.19%
14,O=[N+]([O-])c1cc([N+](=O)[O-])c(Nc2ccccn2)c([N+](=O)[O-])c1,inactive: 5.03%
15,CN(C)CCOC(=O)C(O)(c1ccccc1)C1CCCC1 (centres undefined),inactive: -3.57%
16,COc1ccc(OP(C)(=O)Nc2ccccn2)cc1 (centres undefined),inactive: -3.24%
17,COc1ccccc1OP(C)(=O)Nc1ccc(Br)cc1 (centres undefined),inactive: 0.38%
18,CN(C)C(=O)c1c([N+](=O)[O-])cc([N+](=O)[O-])cc1[N+](=O)[O-],inactive: 11.8%
19,CP(=O)(Nc1ccc(Cl)cc1)Oc1ccc(F)cc1 (centres undefined),inactive: -6.52%
20,COc1ccccc1OP(C)(=O)Nc1ccccc1Br (centres undefined),inactive: -3.05%
21,CC(C)(C)c1ccc(OP(C)(=O)O)cc1,inactive: -2.82%
22,CCc1ccc(OP(C)(=O)Nc2cccnc2)cc1 (centres undefined),inactive: 4.35%
23,CP(=O)(Oc1ccccc1)N1CCOC1=O (centres undefined),inactive: -0.05%
24,O=C(OCCCN1CCCC1)C(O)(c1ccccc1)C1CCCCC1 (centres undefined),inactive: -14.9%
25,COc1ccccc1OP(C)(=O)Nc1c(C)n(C)n(-c2ccccc2)c1=O (centres undefined),inactive: 15.1%

row,SMILES,inhibition
1,COc1ccc(OP(C)(=O)Nc2ccc(Br)cc2)cc1 (centres undefined),inactive: 8.64%
2,CCN(CC)CC(O)COC(=O)C(O)(c1ccccc1)C1CCCCC1 (centres undefined),inactive: 5.59%
3,CP(=O)(OC12CC3CC(CC(C3)C1)C2)OC12CC3CC(CC(C3)C1)C2,inactive: -8.76%
4,CCOC(=O)c1ccc(NP(C)(=O)Oc2ccc(Cl)cc2)cc1 (centres undefined),inactive: 0.26%
5,Nc1ccc2c(ccc3cccnc32)n1.O=[N+]([O-])c1cc([N+](=O)[O-])c(O)c([N+](=O)[O-])c1,inactive: -4.68%
6,COc1ccccc1OP(C)(=O)Nc1ccccc1 (centres undefined),inactive: 13.2%
7,CP(=O)(Nc1ccccc1Br)Oc1ccccc1 (centres undefined),inactive: 0.99%
8,CP(=S)(Nn1cnnc1)Oc1ccccc1 (centres undefined),inactive: 3.21%
9,CP(=O)(Nc1ccccn1)Oc1ccc(Cl)cc1 (centres undefined),inactive: -10.7%
10,CCOP(C)(=S)SCC(=O)NC(C)C(=O)O (centres undefined),inactive: 3.16%
11,O=[N+]([O-])c1cc([N+](=O)[O-])c(O)c([N+](=O)[O-])c1.c1ccc(Oc2ccncc2)cc1,inactive: -17.8%
12,CCOC(=O)c1ccc(NP(C)(=O)Oc2ccc(OC)cc2)cc1 (centres undefined),inactive: 3.56%
13,Cc1cc(C)cc(OP(C)(=O)Nc2ccc(SC(F)(F)F)cc2)c1 (centres undefined),inactive: -8.3%
14,CP(=O)(NC(=O)Nc1ccccc1)Oc1ccccc1 (centres undefined),inactive: -5.01%
15,CCc1ccc(OP(C)(=O)N2CCN(c3ccc([N+](=O)[O-])cc3)CC2)cc1 (centres undefined),inactive: 6.29%
16,CP(=O)(Oc1ccccc1)OC(c1ccccc1)C(F)(F)F (centres undefined),inactive: 20.9%
17,CP(=O)(Nc1ccc(SC(F)(F)F)cc1)Oc1ccc(Cl)cc1 (centres undefined),inactive: 20.8%
18,Cc1cccc(C)c1OP(C)(=O)Nc1ccc(SC(F)(F)F)cc1 (centres undefined),inactive: -20.3%
19,COc1ccccc1-c1ccccn1.O=[N+]([O-])c1cc([N+](=O)[O-])c(O)c([N+](=O)[O-])c1,inactive: -0.37%
20,CCN(CC)CCCOC(=O)C(O)(c1ccccc1)c1ccccc1,inactive: -11.6%
21,COc1ccc(OP(C)(=O)Nc2cccc(F)c2)cc1 (centres undefined),inactive: 2.25%
22,COc1ccccc1OP(C)(=O)Nc1cc(Cl)ccc1C (centres undefined),inactive: -11.2%
23,Cc1cc(C)cc(OP(C)(N)=O)c1 (centres undefined),inactive: -9.73%
24,CCOC(=O)c1ccc(NP(C)(=O)Oc2ccccc2)cc1 (centres undefined),inactive: 0.12%
25,Cc1ccc(NP(C)(=O)Oc2ccccc2)c(C)c1 (centres undefined),inactive: 0.6%

row,SMILES,inhibition
1,COc1ccccc1OP(C)(=O)Nc1ccc(C)cc1 (centres undefined),inactive: -17.4%
2,Cc1cccc(C)c1OP(C)(N)=O (centres undefined),inactive: 11.9%
3,CC(C)(C)c1ccc(OP(C)(=O)Nc2ccc(SC(F)(F)F)cc2)cc1 (centres undefined),inactive: -3.3%
4,O=[N+]([O-])c1ccc2c(c1)C=Nc1ccccc1O2,inactive: -7.49%
5,O=[N+]([O-])c1cc([N+](=O)[O-])c(Nc2cccnc2)c([N+](=O)[O-])c1,inactive: 11.1%
6,CC1=NCCc2c1[nH]c1ccccc21.O=[N+]([O-])c1cc([N+](=O)[O-])c(O)c([N+](=O)[O-])c1,inactive: -7.27%
7,O=C(O)c1cccc(Nc2c([N+](=O)[O-])cc([N+](=O)[O-])cc2[N+](=O)[O-])c1,inactive: -5.29%
8,Cc1cc(C)cc(OP(C)(=O)Nc2ccccn2)c1 (centres undefined),inactive: 5.92%
9,CP(=O)(Nc1cccc(Br)c1)Oc1ccccc1 (centres undefined),inactive: 7.54%
10,Cc1ccc(C)c(NP(C)(=O)Oc2ccccc2)c1 (centres undefined),inactive: 20%
11,Cc1cc(C)cc(OP(C)(=O)Nc2ccc(C)cc2C)c1 (centres undefined),inactive: -1.13%
12,CCOC(=O)c1ccc(NP(C)(=O)Oc2cc(C)cc(C)c2)cc1 (centres undefined),inactive: 3.42%
13,COc1ccccc1OP(C)(=O)Nc1cccc(Br)c1 (centres undefined),inactive: 9.22%
14,Cc1nc2ccc3ccccc3c2s1.O=[N+]([O-])c1cc([N+](=O)[O-])c(O)c([N+](=O)[O-])c1,inactive: 1%
15,O=[N+]([O-])c1cc([N+](=O)[O-])c(-c2cnn(-c3ccccc3)c2)c([N+](=O)[O-])c1,inactive: 1.39%
16,CN(Cc1cccnc1)C(=O)COc1ccc(Cl)c(Cl)c1.O=[N+]([O-])c1cc([N+](=O)[O-])c(O)c([N+](=O)[O-])c1,inactive: -13.5%
17,O=[N+]([O-])c1cc([N+](=O)[O-])c(-n2nnc3ccccc32)c([N+](=O)[O-])c1,inactive: 1.99%
18,CCCOc1ccc(NP(C)(=O)Oc2ccc(Cl)cc2)cc1 (centres undefined),inactive: 0.06%
19,CP(=O)(Nc1ccc(SC(F)(F)F)cc1)Oc1ccccc1 (centres undefined),inactive: 7.81%
20,COc1ccc(-c2ccccn2)cc1.O=[N+]([O-])c1cc([N+](=O)[O-])c(O)c([N+](=O)[O-])c1,inactive: -3.34%
21,CN1CCCCC1COC(=O)C1(O)c2ccccc2CCc2ccccc21 (centres undefined),inactive: 9.77%
22,COc1ccccc1OP(C)(=O)Nc1c(C)cccc1C (centres undefined),inactive: -3.27%
23,CCOC(=O)C(CC)C1=NC(C)(C)Cc2ccccc21.O=[N+]([O-])c1cc([N+](=O)[O-])c(O)c([N+](=O)[O-])c1 (centres undefined),inactive: 6.38%
24,O=[N+]([O-])c1cc([N+](=O)[O-])c(Nc2nnnn2CCO)c([N+](=O)[O-])c1,inactive: -37.3%
